Earlier results in patent US6812025B2, “Two hybrid assay that detects HIV-1 reverse transcriptase dimerization” (priority 2000, dated 2004).

Biological target: T1, RT heterodimer (Human immunodeficiency virus type 1 group M subtype B, UniProt P12497)
T1 construct: The enzyme is a heterodimer of p66 and p51 subunits
Settings: cited from earlier work

Compound: O=C1Nc2ccc(Cl)cc2[C@@](C#CC2CC2)(C(F)(F)F)O1 [efavirenz]
- binding to the RT heterodimer: bind very tightly
